Ab-14 heavy chain CDR variants: yeast mating affinities

Values reported by Li et al. 2023, doi:10.1038/s41467-023-39022-2 (FLAb copy).

All variants were tested on one target, the spike HR2 peptide PDVDLGDISGINAS (SARS-CoV-2).

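The parent was found by panning a naive human phage display library on the peptide. Designed CDR sequences, proposed from the first random library and measured here. Several design methods are mixed in this list. In AlphaSeq, yeast of one mating type display the scFv and yeast of the other type display the target. After mating in shaken culture at 30 °C for 16 h, diploids were selected and their barcode pairs sequenced. Scores were corrected for input abundance and mapped to Kd with protein pairs of known affinity run in the same pool. Each pool was mated in six replicate cultures.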

The variants keep the light chain, the linker and the frameworks of Ab-14 (scFv order VH, the linker GGGGSGGGGSGGGGS, VL).
VH: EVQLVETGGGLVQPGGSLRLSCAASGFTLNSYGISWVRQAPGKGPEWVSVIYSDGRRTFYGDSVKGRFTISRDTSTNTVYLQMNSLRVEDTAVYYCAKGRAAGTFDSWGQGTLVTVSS
VL: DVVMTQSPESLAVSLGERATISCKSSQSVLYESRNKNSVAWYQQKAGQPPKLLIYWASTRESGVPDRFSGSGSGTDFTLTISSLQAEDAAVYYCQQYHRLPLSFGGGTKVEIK

The parent's heavy chain CDRs are GFTLNSYGIS, VIYSDGRRTFYGDSVK, GRAAGTFDS; each variant's own CDRs replace them letter for letter. Variants here have more than six changes. The Kd shown is the geometric mean over detected replicates; a lower Kd is a better binder. A pair that was not seen in any replicate is written "no signal"; this usually means weak binding, but a binder can also be missed. A sequence measured in both rounds can read differently, since the two assays cover different ranges. The authors averaged sequences with at least three values out of six and counted those with two or fewer as poor binders. Three control strains display no target. For all heavy chain designs, 1% of the pairings with them gave a signal, with a median of 120 nM and one signal in twenty below 7.0 nM, so weak values seen in few replicates may be background. Of ten entries with the parent sequence, four were seen in most replicates (averages 2.2 nM to 240 nM), three in one and three in none, so single entries are noisy.

- GFDLNEYGIS / VIYADGKRTFYSDSVK / GNAAGTFDV: 490 pM (6 of 6 replicates)
- GDSLNEYGIS / VIYADGLRSKYADKFK / GQEAGYFGV: 2.1 µM (2 of 6 replicates)
- GFDLNEYGIS / VIYADGIRTAYESNVK / GRNIINVLF: 690 pM (6 of 6 replicates)
- GFDLEDYGIS / VIYADGRRTQYADSVK / GEQAGTFDL: 3.6 nM (6 of 6 replicates)
- GFDLNEYGIS / VIYADGVRTFYADDVK / GENAGTFDV: 2.9 nM (6 of 6 replicates)
- GFDLNEYGIS / VIYADGMRTAYADDVK / GNEAGTFDM: 250 pM (6 of 6 replicates)
- GFDLDEYGIS / VIYADGQRKAYADSVK / GNVAGTFDL: 680 pM (6 of 6 replicates)
- GFDLNEYGIS / VIYADGVRTAYLDSVK / GQLAGTFDT: 190 pM (6 of 6 replicates)
- GFDLDEYGIS / VIYADGQRTAYSDSVK / GEVAGTFDL: 630 pM (6 of 6 replicates)
- GFDLNEYGIS / VIYADGMRTFYDDSVK / GQVAGTFDF: 440 pM (6 of 6 replicates)
- GFDLDEYGIS / VIYADGMRTAYQDSVK / GNQAGTFDV: 230 pM (6 of 6 replicates)
- GFGLMDYGIS / VIYADGKRRSYANSVK / GKHAGTFDF: 2.1 nM (6 of 6 replicates)
- GFDLNEYGIS / VIYADGQRTAYAESVK / GENAGTFDV: 370 pM (6 of 6 replicates)
- GFDLDEYGIS / VIYADGKRTAYADSVK / GTNAGTFDM: 1.2 nM (4 of 6 replicates)
- GFDLNEYGIS / VIYADGRRTFYADSVK / GTVAGTFIQ: 3.0 nM (5 of 6 replicates)
- GKSLDEYGIS / VIYADGSREAYSESFK / GQLAAIFML: no signal (0 of 6 replicates)
- GFDLDEYGIS / VIYADGMRTVYADSVK / GGNAGTFDV: 4.0 nM (5 of 6 replicates)
- GFDLNEYGIS / VIYADGRRTFYADSVK / GEYAGTFDV: 1.5 nM (6 of 6 replicates)
- GFDLNEYGIS / VIYADGMRTAYVDSVK / GENAGTFDQ: 5.6 nM (6 of 6 replicates)
- GFDLNEYGIS / VIYADGSRTAYADDVK / GENAGTFDL: 720 pM (6 of 6 replicates)
- GFDLNEYGIS / VIYADGVRTAYADSVK / GNVAGTFDE: 980 pM (6 of 6 replicates)
- GFDLNEYGIS / VIYADGMRTFYADSVK / GQVAGTFDM: 3.9 nM (6 of 6 replicates)
- GFDLDEYGIS / VIYADGMRTAYADNVK / GETAGTFDQ: 550 pM (6 of 6 replicates)
- GFSINEYGIS / VIYADGRRTFYGNAVK / GKAAVTFDQ: 65 nM (2 of 6 replicates)
- GFDLNEYGIS / VIYADGRRTFYSDSVK / GQTAGTFDE: 550 pM (6 of 6 replicates)
- GFDLNEYGIS / VIYADGVRTFYADDVK / GNVAGTFDV: 470 pM (6 of 6 replicates)
- GFDLNEYGIS / VIYADGKRTYYADSVK / GQVAGTFDV: 56 nM (3 of 6 replicates)
- GFNLDEYGIS / VIYADGTRRYYADSVK / GDEVVVNSI: no signal (0 of 6 replicates)
- GFNLDEYGIS / VIYADGVRTAYADSVK / GEVAGTFDV: 380 pM (6 of 6 replicates)
- GFNLNEYGIS / VIYADGVRTSYTDQVK / GVETGAVLE: no signal (0 of 6 replicates)
- GFDLNEYGIS / VIYADGMRTQYIDSVK / GEQAGTFDV: 3.3 nM (3 of 6 replicates)
- GFDLNEYGIS / VIYADGVRTAYADDVK / GNVAGTFDV: 5.7 pM (6 of 6 replicates)
- GFDLNEYGIS / VIYADGRRTFYADSVK / GEIAGTFIQ: 510 pM (6 of 6 replicates)
- GFDLNEYGIS / VIYADGMRTFYTDSVK / GNQAGTFDV: 460 pM (6 of 6 replicates)
- GFDLTEYGIS / VIYADGRRVVYQDKVK / GELTGTFDQ: no signal (0 of 6 replicates)
- GFGLDEYGIS / VIYADGARKAYQNYFK / GVQAGTFVN: no signal (0 of 6 replicates)
- GEQIDEYGIS / VIYADGRRTAYSQSVK / GQNGGQIDV: no signal (0 of 6 replicates)
- GFEIQEFGIS / VIYADGIRTNYSQNVK / GTLAGTFTL: no signal (0 of 6 replicates)
- GFDLDEYGIS / VIYADGVRTAYADSVK / GETAGTFDL: 1.1 nM (6 of 6 replicates)
- GFDLNEYGIS / VIYADGMRTAYSDSVK / GTNAGTFDV: 1.2 nM (6 of 6 replicates)

A selection of 7 entries from above:

* GFDLNEYGIS / VIYADGVRTAYADSVK / GNVAGTFDE -> 980 pM (6 of 6 replicates)
* GFNLNEYGIS / VIYADGVRTSYTDQVK / GVETGAVLE -> no signal (0 of 6 replicates)
* GFDLNEYGIS / VIYADGKRTFYSDSVK / GNAAGTFDV -> 490 pM (6 of 6 replicates)
* GFDLNEYGIS / VIYADGRRTFYADSVK / GEIAGTFIQ -> 510 pM (6 of 6 replicates)
* GFGLMDYGIS / VIYADGKRRSYANSVK / GKHAGTFDF -> 2.1 nM (6 of 6 replicates)
* GDSLNEYGIS / VIYADGLRSKYADKFK / GQEAGYFGV -> 2.1 µM (2 of 6 replicates)
* GFDLNEYGIS / VIYADGRRTFYADSVK / GEYAGTFDV -> 1.5 nM (6 of 6 replicates)